Measured values from patent publication US6664231B1, “Anti-fungal peptides” (priority 1993, dated 2003).

Tests used:
[1] = system: C. albicans (CA-1, Strain SLU-1); assay: Radial diffusion assay; format: cell-based, Candida albicans; settings: pmoles of peptide added to well to achieve a 30 mm^2 zone, PROBIT analysis; crude or purified (P′) peptide
Procedure, shortened: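 Yeast at 1×10^6 CFU/mL in agarose underlayer (3% Sabouraud, 10 mM sodium phosphate pH 7.4); 2-fold peptide dilutions in D-PBS from ~1 mg/mL loaded into wells, 3 h at 37° C, then nutrient overlayer overnight. Value: pmol/well giving 30 mm^2 net clear zone, by PROBIT regression.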

[2] = system: C. albicans (SLU-1 and other strains); format: cell-based, Candida albicans
Experimental: (§1) In additional experiments, a fluorescence-activated cell sorter (FACS) based assay was developed to test the fungicidal activity of the peptides. […] Difco) agar. Several colonies were picked from the agar plate and inoculated into 5 mL of Sabouraud's Dextrose media in a sterile 10 mL polypropylene tube. The fungal cultures were incubated for about 18 hours at 30° C. […] The culture were centrifuged at 3000 rpm for 5 minutes (Sorvall RT 6000B). After centrifugation, the supernatant was decanted leaving the fungal pellets in the centrifuge tubes. The pellets were resuspended in 15 mL of SDB. Both suspensions were combined into one tube and mixed to generate a stock culture. […] After determining the concentration of the stock, appropriate dilutions were made with Sabouraud's Dextrose media to obtain 100 mL of 1×10^6 cell/mL. […] After the 1 hour incubation, all the tubes were centrifuged at 3000 rpm for 5 minutes. […] Louis, Mo.) in Dulbecco's PBS (DPBS, GIBCO, Grand Island, N.Y.) except the autofluorescence control, which was resuspended in DPBS alone. The tubes were mixed and incubated in the dark at room temperature for at least 20 minutes. […] The settings were adjusted appropriately to the following approximate parameters: Cells were analyzed (10,000 cells/tube) and their respective fluorescence determined. […] The population of dead (i.e., propidium iodide stained) fungal cells was determined by a fluorescence threshold between the negative control and positive control.

Candida glabrata = format: cell-based
Experimental: as §1

Candida lusitaniae = format: cell-based
Experimental: as §1

[3] = system: Crytococcus Neoformans 13690; format: cell-based, Cryptococcus neoformans
Experimental: as §1

in vitro = in vitro ADME, rat or human serum; settings: serum, half-life of peptide in serum as detected by HPLC analysis; read-out: HPLC Peptide in Serum t ½ (converted)
Experimental: For these serum stability experiments, peptides were prepared by solid phase peptide sythesis and purified to 94% or greater purity as described in Example 1. Blood was collected from metaphane anesthesized rats by aortic bleed into Vacutainer™ tubes and allowed to clot at room temperature for approximately 30 minutes, then centrifuged at 3000 rpm (about 1000×g) for 10 minutes at room temperature and the serum aspirated. In addition, frozen human serum (North American Biologics, Inc., Miami, Fla., cat. no. 2140, lot no. 94115) was thawed at room temperature and filtered through a 0.45 μm membrane before use.
A 1 mg/mL solution of an exemplary XMP peptide to be tested was added to an equal volume of either rat or human serum described above and maintained at 37° C. At 0, 1, 2, and 4 hours, 100 μL were removed and processed by solid phase extraction for HPLC analysis as follows. Serum samples were prepared for HPLC using C-18 Sep-Pak cartridges (1 mL cartridge with 100 mg of sorbent, Waters Corp., Milford, Mass.). One hundred μL of serum sample were added to an equal volume of 1% TFA and mixed for 30 seconds on a Vortex mixer. The sample was then applied to a C-18 Sep-Pak cartridge that had been conditioned by washing with 1 mL of methanol followed by 1 mL Milli-Q water. Weakly reed components were eluted by washing with 1 mL of 0. 1% TFA. The bound peptide was eluted with two volumes of 250 μL 80% acetonitrile/0.065% TFA.
The material eluted from the Sep-Pak cartridge was analyzed on a Michrom Ultaafast Microprotein Analyzer equipped with a 150 mm×1 mm, 5μ particle, 300 Å pore C-8 Zorbax column. The column oven was set to 40° C., the flow rate was 100 μL/minute, and injection volumes were typically 5-10 μL. HPLC was performed using 5% acetonitrile/0.1% TFA in water as mobile phase A, and 80% acetonitrile/0.065% TFA as mobile phase B. The eluate was monitored spectiophotometrically at 214 nm. Peptide standards were dissolved in mobile phase A at 0. 1 mg/mL. The gradient was 25-35% B/10 minutes followed by a 5 minute wash step of 100% B and reequilibration at 25% B for 10 minutes.

[4] = Serum stability, anti-fungal activity after serum incubation by radial diffusion bioassay; format: in vitro ADME, rat or human serum; settings: Activity in Serum t ½ (hr.)
Procedure, shortened: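 Peptide at 1 mg/mL mixed with an equal volume of rat or human serum and held at 37° C. Samples taken at 0, 1, 2 and 4 h, extracted on C-18 solid phase, then analysed by HPLC, N-terminal sequencing and ESI/MS. Recovered peptides tested against C. albicans SLU-1 by radial diffusion.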

SMILES | C. albicans pmol/30 mm^2 zone [1] | Activity on various strains of C. albicans, IC50, 10231 [2] | Activity on various strains of C. albicans, IC50, 14053 [2] | Activity on various strains of C. albicans, IC50, 26555 [2] | Activity on various strains of C. albicans, IC50, 90028 [2] | Activity on various strains of C. albicans, IC50, SLU#1 [2] | Candida glabrata IC50 (Candida glabrata) | Candida lusitaniae IC50 (Candida lusitaniae) | Activity of Peptides on Crytococcus Neoformans 13690, IC50 [3] | half-life at 0.5 mg/mL (in vitro) | half-life at 0.5 mg/mL [4]
CC[C@H](C)[C@H](NC(=O)[C@H](CC(C)C)NC(=O)[C@H](Cc1c[nH]c2ccccc12)NC(=O)[C@H](CCCCN)NC(C)=O)C(=O)N[C@@H](CCC(N)=O)C(=O)N[C@@H](CC(C)C)C(=O)N[C@@H](Cc1ccccc1)C(=O)N[C@@H](Cc1c[nH]cn1)C(=O)N[C@@H](CCCCN)C(=O)N[C@@H](CCCCN)C(N)=O [XMP.373] | 298 pmol/30 mm^2 zone | 2.92 µg/mL | 1.64 µg/mL | 1.46 µg/mL | 1.86 µg/mL | 1.13 µg/mL | 4.96 µg/mL | 1.11 µg/mL | 0.87 µg/mL | 2.6 h | 1.8 h
CC[C@H](C)[C@H](NC(=O)[C@H](CC(C)C)NC(=O)[C@H](Cc1c[nH]c2ccccc12)NC(=O)CNC(=O)[C@@H](N)CCCCN)C(=O)N[C@@H](CCC(N)=O)C(=O)N[C@@H](CC(C)C)C(=O)N[C@@H](Cc1ccccc1)C(=O)N[C@@H](Cc1c[nH]cn1)C(=O)N[C@@H](CCCCN)C(=O)N[C@@H](CCCCN)C(N)=O [XMP.389] | 206 pmol/30 mm^2 zone | 3.12 µg/mL | 0.95 µg/mL | 0.89 µg/mL | 2.79 µg/mL | 0.95 µg/mL | 4.64 µg/mL | 2.26 µg/mL | 0.25 µg/mL | 1.3 h | 1.6 h
CC[C@H](C)[C@H](NC(=O)[C@H](CC(C)C)NC(=O)[C@H](Cc1c[nH]c2ccccc12)NC(=O)CNC(=O)[C@@H](NC(=O)[C@@H](N)CCCCN)C(C)C)C(=O)N[C@@H](CCC(N)=O)C(=O)N[C@@H](CC(C)C)C(=O)N[C@@H](Cc1ccccc1)C(=O)N[C@@H](Cc1c[nH]cn1)C(=O)N[C@@H](CCCCN)C(=O)N[C@@H](CCCCN)C(N)=O [XMP.391] | 68 pmol/30 mm^2 zone | 2.06 µg/mL | 1.04 µg/mL | 0.79 µg/mL | 1.29 µg/mL | 0.64 µg/mL | 2.85 µg/mL | 1.69 µg/mL | 0.34 µg/mL | 1 h | 4.7 h
